Source: US7432260B2, “Pyrimidine compounds” (Cyclacel Limted, priority 2002, dated 2008)
Like-named read-outs stand apart in the source and are kept apart here.

Key:
[1] = target: CDK2/cyclin A (Homo sapiens, UniProt P24941); test: Kinase assay CDK2/cyclin A; type: biochemical
Protocol: (§1) Kinase assays. […] This was achieved by measurement of incorporation of radioactive phosphate from ATP into appropriate polypeptide substrates. Recombinant protein kinases and kinase complexes were produced or obtained commercially. Assays were performed using 96-well plates and appropriate assay buffers (typically 25 mM β-glycerophosphate, 20 mM MOPS, 5 mM EGTA, 1 mM DTT, 1 mM […], pH 7.4), into which were added 2-4 μg of active enzyme with appropriate substrates. The reactions were initiated by addition of Mg/ATP mix (15 mM MgCl2+100 μM ATP with 30-50 kBq per well of [γ-^32P]-ATP) and mixtures incubated as required at 30° C. Reactions were stopped on ice, followed by filtration through p81 filterplates or GF/C filterplates (Whatman Polyfiltronics, Kent, UK). After washing 3 times with 75 mM aq orthophosphoric acid, plates were dried, scintillant added and incorporated radioactivity measured in a scintillation counter (TopCount, Packard Instruments, Pangbourne, Berks, UK). Compounds for kinase assay were made-up as 10 mM stocks in DMSO and diluted into 10% DMSO inrassay buffer.

[2] = target: CDK2/cyclin E (Homo sapiens, UniProt P24941); test: Kinase assay CDK2/cyclin E; type: biochemical
Protocol: as §1

[3] = Table 2, read-out: Kinase Inhibition IC50 CDK2 cyclin A
[4] = Table 2, read-out: Kinase Inhibition IC50 CDK2 cyclin E

Structure (SMILES)	IC50 [1, 3] [nM]	IC50 [2, 4] [nM]	IC50 ([1]; Table 3 selectivity panel, read-out: Kinase specificity IC50 CDK2/A) [nM]	IC50 ([2]; Table 3 selectivity panel, read-out: Kinase specificity IC50 CDK2/E) [nM]
Cc1nc(C)c(-c2ccnc(Nc3ccc(N4CCOCC4)cc3)n2)s1 [Compound 2, [4-(2,4-Dimethyl-thiazol-5-yl)-pyrimidin-2-yl]-(4-morpholin-4-yl-phenyl)-amine]	2200	3900		
CNc1nc(C)c(-c2ccnc(Nc3ccc(N4CCOCC4)cc3)n2)s1 [Compound 3, [4-(2-N-Methylamino-4-methyl-thiazol-5-yl)-pyrimidin-2-yl]-(4-morpholinophenyl)-amine]	4700	430	440	680
CCNc1nc(C)c(-c2ccnc(Nc3ccc(N4CCOCC4)cc3)n2)s1 [Compound 4, [4-(2-Ethylamino-4-methyl-thiazol-5-yl)-pyrimidin-2-yl]-(4-morpholin-4-yl-phenyl)-amine]	1100	900		
CC(=O)N1CCN(c2ccc(Nc3nccc(-c4sc(C)nc4C)n3)cc2)CC1 [Compound 5, 1-(4-{4-[4-(2,4-Dimethyl-thiazol-5-yl)-pyrimidin-2-ylamino]-phenyl}-piperazin-1-yl)-ethanone]	1100	870		
Cc1nc(C)c(-c2ccnc(Nc3ccc(N4CCN(S(C)(=O)=O)CC4)cc3)n2)s1 [Compound 10, [4-(2,4-Dimethyl-thiazol-5-yl)-pyrimidin-2-yl]-[4-(4-methanesulfonyl-piperazin-1-yl)-phenyl]-amine]	4400	15000		
CNc1nc(C)c(-c2ccnc(Nc3ccc(N4CCN(C(C)=O)CC4)cc3)n2)s1 [Compound 61, 1-(4-{4-[4-(4-Methyl-2-methylamino-thiazol-5-yl)-pyrimidin-2-ylamino]-phenyl}-piperazin-1-yl)-ethanone]	2800	600		
CNc1nc(C)c(-c2ccnc(Nc3cccc(CNC(C)=O)c3)n2)s1 [Compound 63, N-{3-[4-(4-Methyl-2-methylamino-thiazol-5-yl)-pyrimidin-2-ylamino]-benzyl}-acetamide]		1700		
